In patent publication US20020132817A1, “Heterocyclic compounds, their production and use” (priority 1998, published 2002) one finds IC50 data, which are given here for two compounds.

The chains behind the UniProt entries cited, without tags or fusion partners.
UniProt P25103, whole entry: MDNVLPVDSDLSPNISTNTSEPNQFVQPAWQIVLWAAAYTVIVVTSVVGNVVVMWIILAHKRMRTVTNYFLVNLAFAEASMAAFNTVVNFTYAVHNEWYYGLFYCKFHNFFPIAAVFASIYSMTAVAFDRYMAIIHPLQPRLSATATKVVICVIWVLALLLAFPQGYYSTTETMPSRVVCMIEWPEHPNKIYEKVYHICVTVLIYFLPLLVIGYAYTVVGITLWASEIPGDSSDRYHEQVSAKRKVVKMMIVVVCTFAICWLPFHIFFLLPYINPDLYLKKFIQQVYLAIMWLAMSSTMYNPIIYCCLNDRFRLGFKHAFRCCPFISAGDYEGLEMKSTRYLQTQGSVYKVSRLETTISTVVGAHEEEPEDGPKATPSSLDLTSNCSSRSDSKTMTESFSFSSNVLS

In this assay the target is T1, substance P receptor (Homo sapiens, UniProt P25103).
T1 construct: The receptor was prepared from human lymphoblast cells (IM-9); endogenous in cells; host or cells: IM-9 human lymphoblast cells (membrane preparation)
Briefly: Radioligand receptor binding inhibitory activity using receptor from human lymphoblast cells (IM-9). Conditions: 125I-BHSP radioligand, receptor from IM-9 cells, 25° C. for 30 minutes. The protocol:
Radioligand receptor binding inhibitory activity Binding inhibitory activity using receptor from human lymphoblast cells (IM-9)
The receptor was prepared from human lymphoblast cells (IM-9). IM-9 cells (2×10^5 cells/ml) were inoculated and incubated for 3 days (one liter), which was then subjected to centrifuge for 5 minutes at 500×g to obtain cell pellets. […] The residue was washed twice with 30 ml of the above-mentioned buffer, which was then preserved frozen (−80° C.) as a specimen of the receptor.
The specimen was suspended in a reaction buffer (50 mM Tri-HCl buffer (pH 7.4), 0.02% bovine serum albumin, 1 mM phenylmethylsulfonyl fluoride, […], […] bacitracin, 3 mM manganese chloride) and 100 ul portion was the suspension was used in the reaction. […] The amount of nonspecific binding was determined by adding substance P at a final concentration of 2×10^−6M. After the reaction, using a cell harvester (290 PHD, Cambridge Technology, Inc, U.S.A.), rapid filtration was carried out through a glass filter (GF/B, Whatman, U.S.A.) to stop the reaction. After washing three times with 250 ul of 50 mM of Tris-HCl buffer (pH 7.4) containing 0.02% bovine serum albumin, the radioactivity remaining on the filter was determined with a gamma counter. Before use, the filter was immersed in 0.1% polyethyleneimine for 24 hours and air-dried.

For the compound `Cc1ccc(-c2c3n(c(=O)c4ncccc24)CC[C@@H](C)CN(Cc2cc(C(F)(F)F)cc(C(F)(F)F)c2)C3=O)cc1` [Reference Example 72, (9R)-7-[3,5-Bis(trifluoromethyl)benzyl]-6,7,8,9,10,11-hexahydro-9-methyl-5-(4-methylphenyl)-6,13-dioxo-13H-[1,4]diazocino[2,1-g][1,7]naphthyridine], the half-inhibitory concentration (IC50) (as a rule, the concentration that inhibits the measured activity by half) turned out to be 0.43 nM.

The compound `Cc1ccc(-c2c3n(c(=O)c4ncccc24)CCC(C)CN(Cc2cc(C(F)(F)F)cc(C(F)(F)F)c2)C3=O)cc1` (racemic) [Reference Example 70, (+/−)-7-[3,5-Bis(trifluoromethyl)benzyl]-6,7,8,9,10,11-hexahydro-9-methyl-5-(4-methylphenyl)-6,13-dioxo-13H-[1,4]diazocino[2,1-g][1,7]naphthyridine] yielded an IC50 of 0.17 nM.
